Kd data for 1 molecule are collected here from publication PMC10923831 (2024).

The target of the assay is T1, RAD51 (UniProt Q06609 1-339).
T1 chain: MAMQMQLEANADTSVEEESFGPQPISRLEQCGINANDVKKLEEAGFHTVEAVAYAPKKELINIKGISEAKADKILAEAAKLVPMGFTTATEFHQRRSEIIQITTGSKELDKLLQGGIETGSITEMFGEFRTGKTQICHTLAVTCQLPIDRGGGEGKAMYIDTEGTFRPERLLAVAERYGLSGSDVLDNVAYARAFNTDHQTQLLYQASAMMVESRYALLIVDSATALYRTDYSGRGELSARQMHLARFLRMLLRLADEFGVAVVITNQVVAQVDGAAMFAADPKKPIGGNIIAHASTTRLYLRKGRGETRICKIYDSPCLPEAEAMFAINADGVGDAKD
The assay is described as follows: MST.

B1: GRB2-SH2 domain (isolated, for MST) (domain or fragment)
chain: WFFGKIPRAKAEEMLSKQRHDGAFLIRESESAPGDFSLSVKFGNDVQHFKVLRDGAGKYFLWVVKFNSLNELVDYHRSTSVSRNQQIFLRDIE
For orientation: Kd means the concentration at which binding is half-saturated. Low values mean higher affinity, high ones lower affinity. For the molecule B1, binding was put at a Kd of 131 nM.
